Legend:
Test in all cases: 125I-probe peptide inhibition, purified HLA
HLA-A*6801 = HLA-A*6801 (human)
HLA-B*3501 = HLA-B*3501 (human)
HLA-B*0702 = HLA-B*0702 (human)
HLA-B*5301 = HLA-B*5301 (human)
HLA-B*5101 = HLA-B*5101 (human)

B1: p53.172.B5K10 (peptide)
peptide: VVRRBPHHEK
modifications: B at position 5 = alpha-amino butyric acid (in place of Cys)
- IC50 (HLA-A*6801): 3.81 µM

B2: p53.63.F1111 (peptide)
peptide: FPRMPEAAPPI
- IC50 (HLA-B*3501): 5.54 µM

B3: p53.70.F119 (peptide)
peptide: FPPVAPAPI
- IC50 (HLA-B*0702): 0.275 µM

B4: p53.70.F1110 (peptide)
peptide: FPPVAPAPAI
- IC50 (HLA-B*5301): 2.91 µM

B5: p53.74.F1 (10-mer) (peptide)
peptide: FPAPAAPTPA
- IC50 (HLA-B*5301): 5.17 µM

B6: p53.74.F1110 (peptide)
peptide: FPAPAAPTPI
- IC50 (HLA-B*3501): 0.277 µM

B7: p53.76.F118 (peptide)
peptide: FPAAPTPI
- IC50 (HLA-B*3501): 0.655 µM

B8: p53.76.F1 (11-mer) (peptide)
peptide: FPAAPTPAAPA
- IC50 (HLA-B*3501): 0.257 µM

B9: p53.79.F118 (peptide)
peptide: FPTPAAPI
- IC50 (HLA-B*3501): 5.14 µM

B10: p53.79.F1 (peptide)
peptide: FPTPAAPAPI
- IC50 (HLA-B*3501): 3.43 µM
- IC50 (HLA-B*5301): 0.715 µM

B11: p53.84.F1 (peptide)
peptide: FPAPAPSWPL
- IC50 (HLA-B*5101): 1.06 µM

B12: p53.86.F1 (peptide)
peptide: FPAPSWPL
- IC50 (HLA-B*5101): 0.204 µM
